Experimental data from BindingDB's records for 15501038.

Amino acid sequences for entries named in this document (tags omitted).
UniProt P22748, whole entry, looked up: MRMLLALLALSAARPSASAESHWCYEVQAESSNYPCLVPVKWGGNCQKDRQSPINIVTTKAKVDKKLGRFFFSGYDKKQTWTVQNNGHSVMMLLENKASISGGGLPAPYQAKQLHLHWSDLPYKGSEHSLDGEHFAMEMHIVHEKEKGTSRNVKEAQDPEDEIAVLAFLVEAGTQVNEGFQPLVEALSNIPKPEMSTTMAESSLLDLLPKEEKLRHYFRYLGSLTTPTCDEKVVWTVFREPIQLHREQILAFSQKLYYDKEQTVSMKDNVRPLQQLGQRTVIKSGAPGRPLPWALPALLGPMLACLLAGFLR

Target: Carbonic anhydrase 4 (Homo sapiens, UniProt P22748)

For [N-]=[N+]=N, the Ki was 65.1 mM.
